Target: SbSOMT (stilbene O-methyltransferase) (Sorghum bicolor, UniProt A0A1B6PFV1)
Assay: biochemical
Set-up: gene SORBI_3007G059100

Amino acid sequences for entries named in this document (tags omitted). Residues count along the entry.
UniProt A0A1B6PFV1, 2-377: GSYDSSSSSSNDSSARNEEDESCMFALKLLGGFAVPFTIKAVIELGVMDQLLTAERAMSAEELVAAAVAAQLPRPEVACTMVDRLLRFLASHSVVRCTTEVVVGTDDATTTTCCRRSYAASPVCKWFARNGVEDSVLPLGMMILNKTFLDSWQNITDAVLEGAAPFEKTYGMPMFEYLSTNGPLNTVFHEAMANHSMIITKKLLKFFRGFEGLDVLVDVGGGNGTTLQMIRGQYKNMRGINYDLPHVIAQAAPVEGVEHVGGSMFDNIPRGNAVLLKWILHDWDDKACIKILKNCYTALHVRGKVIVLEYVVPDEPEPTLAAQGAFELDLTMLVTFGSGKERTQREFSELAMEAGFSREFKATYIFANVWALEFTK

In the case of `Oc1cc(O)cc(/C=C/c2ccc(O)c(O)c2)c1` [piceatannol], the Kd is reported as 37.5 µM.
